## Apparent affinities of Ab-14 variants for a coronavirus HR2 peptide

Target: peptide PDVDLGDISGINAS, taken from heptad repeat 2 (HR2) of SARS-CoV-2 spike.

Each scFv is VH, a (GGGGS)3 linker, VL, as in the parent Ab-14, and differs from it in the CDRs of the heavy chain only.
VH: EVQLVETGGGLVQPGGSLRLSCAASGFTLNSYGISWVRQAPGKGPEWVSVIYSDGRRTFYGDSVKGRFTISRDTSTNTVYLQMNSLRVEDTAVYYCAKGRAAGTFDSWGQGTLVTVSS
VL: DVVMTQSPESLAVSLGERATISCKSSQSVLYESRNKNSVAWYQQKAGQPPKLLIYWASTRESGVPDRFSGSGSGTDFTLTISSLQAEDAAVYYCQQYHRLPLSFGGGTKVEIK

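Phage display of a naive human antibody library on the peptide gave the parent. This is the validation round: designs drawn from the data on random variants, tested in the same kind of assay. Their group label is 14H_GP_Gen (GP: Gaussian process model; Gen: genetic algorithm; a sequence that several methods proposed may carry one label only). Affinity was read by AlphaSeq, a pooled yeast mating assay with surface-displayed partners. Pairs that bind mate more often; barcode pairs of the diploids are counted by sequencing. Scores were corrected for input abundance and mapped to Kd with protein pairs of known affinity run in the same pool. Mating was done six times.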

Each variant is given by its three heavy chain CDRs, as the data file delimits them; those of the parent are GFTLNSYGIS, VIYSDGRRTFYGDSVK, GRAAGTFDS. Numbers give log10(Kd / nM), so 0 is 1 nM and 3 is 1 µM. Smaller is tighter. Averages over replicates are reported, and they cover detected replicates only. An entry "nd" has no value in the source: the pair was not observed among the diploids in that replicate. This suggests poor binding but is not conclusive. Nonspecific signal, from three strains lacking the peptide, appeared in 1% of pairings of all heavy chain designs, centred on 2.08 (5% of these signals below 0.84); values are not corrected for it. For each scFv, signals with the empty controls are counted beside the result. Values of this round are not directly comparable with the first-round values of the same sequences. The authors' rule: three or more of the six replicates give a measured affinity, fewer mean a poor binder.

With GFDLNEYGIS | VIYSDGRRTFYGDSVK | GNAAGTFDS the result was 0.39, 0.42, 0.57, 0.65, 0.36, 0.41 (mean 0.47; controls 1 of 18).
With GFNLNSYGIS | VIYSDGRRTFYIDSVK | GQEAGTFDS the result was nd, 0.37, 0.44, nd, nd, 1.35 (mean 0.72; controls 0 of 18).
With GFNLNSYGIS | VIYSDGRRTFYGDQVK | GREAGTFDS the result was 0.79, 0.66, 0.39, 0.37, 0.65, 0.64 (mean 0.58; controls 1 of 18).
With GFDLNSYGIS | VIYSDGRRTFYGDNVK | GKTAGTFDS the result was 0.21, 0.38, 1.01, -0.24, 0.11, 0.35 (mean 0.30; controls 0 of 18).
With GFDLNSYGIS | VIYSDGRRTFYGDGVK | GKTAGTFDS the result was nd, nd, nd, nd, nd, nd (controls 0 of 18).
With GFHLNSYGIS | VIYSDGRRTFYIDSVK | GQEAGTFDS the result was nd, nd, 1.72, 0.84, nd, 1.72 (mean 1.43; controls 0 of 18).
With GFSLNSYGIS | VIYSDGRRTFYGDSVK | GSEAGTFDT the result was -0.51, -0.59, -0.33, -0.51, -0.59, -0.71 (mean -0.54; controls 0 of 18).
With SFDLNSYGIS | VIYSDGRRTFYGDSVK | GRQAGTFDS the result was nd, 2.00, 1.84, 1.56, nd, 1.28 (mean 1.67; controls 0 of 18).
With GFSLNSYGIS | VIYSDGRRTFYGDSVK | GAEAGTFDS the result was 0.33, 0.21, 0.05, -0.27, 0.14, 0.10 (mean 0.09; controls 0 of 18).
With SFNLNSYGIS | VIYSDGRRTFYADSVK | GRQAGTFDS the result was 1.47, 1.44, 1.28, 0.81, 0.57, 1.67 (mean 1.20; controls 0 of 18).
With GFNLNSYGIS | VIYSDGRRTFYGDSVK | GQTAGTFDT the result was 0.48, 0.37, 0.70, 0.14, 0.60, 0.71 (mean 0.50; controls 1 of 18).
With GFHLNSYGIS | VIYSDGKRTFYADSVK | GRTAGTFDS the result was 0.27, 0.96, 0.84, 0.28, 1.16, 0.63 (mean 0.69; controls 0 of 18).
With GFELNSYGIS | VIYSDGRRTFYADWVK | GRTAGTFDS the result was 1.47, 1.58, 0.77, 0.98, 0.54, 1.36 (mean 1.12; controls 0 of 18).
With GFTLESYGIS | VIYSDGRRTFYGDKVK | GRTAGTFDS the result was nd, 1.50, 1.12, nd, 2.43, nd (mean 1.68; controls 1 of 18).
With GFKLNSYGIS | VIYADGRRTFYGDSVK | GRTAGTFDS the result was -0.47, -0.84, -0.78, -0.87, -0.47, -0.38 (mean -0.64; controls 0 of 18).
With GFTLNSYGIS | VIYSDGRRTFYSDSVK | GQTAGTFDA the result was 0.43, 0.31, 0.49, 0.02, -0.14, 0.56 (mean 0.28; controls 0 of 18).
With GFELNSYGIS | VIYSDGRRTFYQDSVK | GKAAGTFDS the result was 0.81, 0.88, 1.37, 0.34, 1.13, 0.48 (mean 0.83; controls 2 of 18).
With GFTLESYGIS | VIYSDGRRTFYIDSVK | GNAAGTFDS the result was nd, 0.92, 0.40, nd, nd, 0.04 (mean 0.45; controls 0 of 18).
With GFDLNSYGIS | VIYSDGRRTFYADDVK | GREAGTFDS the result was 0.30, 0.14, -0.08, 0.06, 0.04, 0.09 (mean 0.09; controls 1 of 18).
With GFELNSYGIS | VIYSDGRRTAYGDSVK | GREAGTFDS the result was 0.81, 0.60, 0.76, 0.55, 0.72, 0.66 (mean 0.68; controls 0 of 18).
With GFNLNSYGIS | VIYSDGRRTFYADSVK | GRMAGTFDT the result was 0.62, 0.54, 1.33, -0.16, 0.36, 0.75 (mean 0.57; controls 1 of 18).
With GFDLNSYGIS | VIYSDGMRTFYIDSVK | GRTAGTFDS the result was 0.28, 0.06, 0.55, -0.07, 0.29, 0.00 (mean 0.18; controls 0 of 18).
With GFELNSYGIS | VIYSDGLRTFYGDSVK | GRTAGTFDS the result was 0.54, 0.53, -0.17, 1.56, 0.56, 0.46 (mean 0.58; controls 0 of 18).
With GFPLNEYGIS | VIYSDGRRTFYGDSVK | GKTAGTFDS the result was nd, -1.13, nd, nd, nd, -1.78 (mean -1.46; controls 0 of 18).
With GFHLNSYGIS | VIYSDGRRTFYQDSVK | GKAAGTFDS the result was 1.02, 0.36, 0.74, 0.96, 1.98, 0.99 (mean 1.01; controls 0 of 18).
With GFELNSYGIS | VIYSDGRRTFYGDSVK | GREAGTFDK the result was 1.17, 0.25, 0.31, 0.23, 0.97, -0.05 (mean 0.48; controls 0 of 18).
With GFDLNSYGIS | VIYSDGRRTFYGDSVK | GQTAGTFDD the result was 0.24, 0.19, -0.10, 0.08, 0.61, -0.39 (mean 0.11; controls 0 of 18).
With GFSLNSYGIS | VIYADGRRTFYGDNVK | GQAAGTFDS the result was -0.16, -0.58, -0.91, -0.83, -0.47, -0.50 (mean -0.58; controls 1 of 18).
With GFDLNSYGIS | VIYSDGRRTFYSDQVK | GEAAGTFDS the result was 0.21, 0.70, 0.80, 0.14, -0.23, 0.29 (mean 0.32; controls 0 of 18).
With GFDLNTYGIS | VIYSDGRRTFYGDSVK | GREAGTFDT the result was nd, 0.11, -0.22, 0.91, -0.46, nd (mean 0.08; controls 0 of 18).
With GFTLNSYGIS | VIYSDGQRTFYIDSVK | GRVAGTFDS the result was 1.73, nd, nd, 0.99, nd, nd (mean 1.36; controls 0 of 18).
With GFTLNSYGIS | VIYSDGKRTFYGDSVK | GQEAGTFDS the result was nd, nd, nd, nd, nd, 1.67 (controls 0 of 18).
With GFNLNSYGIS | VIYSDGRRTFYGDQVK | GEAAGTFDS the result was nd, 0.87, nd, nd, nd, nd (controls 0 of 18).
With GFDLNSYGIS | VIYSDGRRTFYADMVK | GQTAGTFDS the result was 1.47, 1.43, 0.58, 0.78, 0.60, 0.83 (mean 0.95; controls 0 of 18).
With GFDLNSYGIS | VIYSDGRRTFYGDSVK | GRQAGTFDM the result was 0.81, 0.63, 1.25, 0.68, nd, nd (mean 0.84; controls 0 of 18).
With GFDLNSYGIS | VIYSDGRRTFYADMVK | GEAAGTFDS the result was 1.32, 0.88, 1.05, 1.22, 0.21, 0.78 (mean 0.91; controls 0 of 18).
With GFELNSYGIS | VIYSDGRRTFYKDSVK | GRTAGTFDT the result was 0.69, 0.83, 0.75, 0.84, 0.87, 0.69 (mean 0.78; controls 1 of 18).
With GFGLNSYGIS | VIYADGRRTFYGDSVK | GKAAGTFDV the result was 0.06, 0.36, 0.02, -0.13, -0.08, -0.35 (mean -0.02; controls 0 of 18).
With GFTLESYGIS | VIYSDGRRTFYGDSVK | GKTAGTFDS the result was 0.55, nd, nd, nd, nd, nd (controls 0 of 18).
With KFQLNEYGIS | VIYSDGRRTFYGDSVK | GRQAGTFDS the result was nd, 2.12, 1.39, 1.67, nd, nd (mean 1.73; controls 0 of 18).
With GFDLNSYGIS | VIYSDGRRTFYIDAVK | GKAAGTFDS the result was 0.91, 1.05, 0.42, 1.08, nd, 0.73 (mean 0.84; controls 0 of 18).
With GFDLNSYGIS | VIYSDGRRTFYGDPVK | GKTAGTFDS the result was 0.37, 0.26, 0.30, 0.15, 0.22, -0.18 (mean 0.19; controls 0 of 18).
With MFDLNSYGIS | VIYSDGRRTFYADSVK | GRNAGTFDS the result was 0.37, 0.38, -0.33, 0.12, 0.20, -0.27 (mean 0.08; controls 0 of 18).
With GFELNEYGIS | VIYSDGRRTFYGDSVK | GKAAGTFDV the result was 0.29, 0.38, 0.40, 0.37, 0.10, 0.47 (mean 0.34; controls 0 of 18).
With GFQLNSYGIS | VIYSDGRRTAYGDSVK | GRAAGTFDS the result was 0.96, 0.92, 0.63, 0.87, 0.63, 1.17 (mean 0.86; controls 0 of 18).
With GFSLNEYGIS | VIYSDGRRTFYGESVK | GRTAGTFDS the result was -0.35, -0.68, 0.19, -0.28, 0.30, 0.02 (mean -0.13; controls 0 of 18).
With GFGLNEYGIS | VIYSDGRRTFYGDSVK | GKQAGTFDS the result was -0.10, 0.37, -0.40, -0.41, -0.59, 0.00 (mean -0.19; controls 0 of 18).
With GFSLNSYGIS | VIYSDGRRTFYQDSVK | GRQAGTFDS the result was nd, nd, 1.23, 0.63, 1.54, 0.99 (mean 1.10; controls 0 of 18).

The last 7 entries again:

| CDR-H1 | CDR-H2 | CDR-H3 | log10 Kd (nM) by replicate | log10 Kd (nM), mean | empty controls |
|---|---|---|---|---|---|
| GFDLNSYGIS | VIYSDGRRTFYGDPVK | GKTAGTFDS | 0.37, 0.26, 0.30, 0.15, 0.22, -0.18 | 0.19 | 0/18 |
| MFDLNSYGIS | VIYSDGRRTFYADSVK | GRNAGTFDS | 0.37, 0.38, -0.33, 0.12, 0.20, -0.27 | 0.08 | 0/18 |
| GFELNEYGIS | VIYSDGRRTFYGDSVK | GKAAGTFDV | 0.29, 0.38, 0.40, 0.37, 0.10, 0.47 | 0.34 | 0/18 |
| GFQLNSYGIS | VIYSDGRRTAYGDSVK | GRAAGTFDS | 0.96, 0.92, 0.63, 0.87, 0.63, 1.17 | 0.86 | 0/18 |
| GFSLNEYGIS | VIYSDGRRTFYGESVK | GRTAGTFDS | -0.35, -0.68, 0.19, -0.28, 0.30, 0.02 | -0.13 | 0/18 |
| GFGLNEYGIS | VIYSDGRRTFYGDSVK | GKQAGTFDS | -0.10, 0.37, -0.40, -0.41, -0.59, 0.00 | -0.19 | 0/18 |
| GFSLNSYGIS | VIYSDGRRTFYQDSVK | GRQAGTFDS | nd, nd, 1.23, 0.63, 1.54, 0.99 | 1.10 | 0/18 |

Reference: Li et al. 2023, doi:10.1038/s41467-023-39022-2. File: FLAb, binding data.